Assay results published in patent publication US20090246519A1 (priority 2008, published 2009).

System: Strains in all clusters
Experiment: Resistance to other oxyanions under aerobic growth conditions
Format: cell-based
Details: 0.7 mM, aerobic growth conditions (data not shown)

arsenite was tested, and the “Resistance of strains to oxyanion” value was “resistant”.
